Laboratory results published in patent US4948782A, “A method of promoting the growth of domestic animals with erythromycin derivative containing composition” (Kitasato Kenkyusho, priority 1987, dated 1990).
In brackets after ≈: the same amount, converted by molar mass.

Experiments:
Assay type in all cases: cell-based
Bacillus subtilis = assay: MIC, Bacillus subtilis (BS)
Bacillus cereus IFO 3001 = assay: MIC, Bacillus cereus IFO 3001 (BC)
Escherichia coli NIHJ = assay: MIC, Escherichia coli NIHJ (EC)
[1] = test system: Klebsiella pneumoniae ATCC 10031; assay: MIC, Klebsiella pneumoniae ATCC 10031 (KP)

For `CC[C@H]1OC(=O)[C@H](C)[C@@H](O[C@H]2C[C@@](C)(OC)[C@@H](O)[C@H](C)O2)[C@H](C)[C@@H](O[C@@H]2O[C@H](C)C[C@H](N(C)C)[C@H]2O)[C@@]2(C)CC(C)C3(O[C@@]1(C)[C@H](O)[C@H]3C)O2` (stereo partly shown) [*2 (EM202), Anhydroerythromycin A, reference compound], the “MIC BS” value (Bacillus subtilis) was 6.25 µg/mL (≈ 8.73 µM), the “MIC BC” value (Bacillus cereus IFO 3001) was 6.25 µg/mL (≈ 8.73 µM) and the “MIC EC” value (Escherichia coli NIHJ) was over 100 µg/mL. For the same compound, the “MIC KP” value [1] was over 100 µg/mL.
